In patent publication US20090068143A1, “ORALLY EFFECTIVE CANNABINOID ANALOGS” (priority 2005, published 2009):

How the values were obtained:
[1] = in vivo; cited from earlier work
EAE = conditions: cited from earlier work
[2] = test system: MOG induced chronic progressive EAE; test: MOG induced chronic-progressive EAE

Molecule	patients developing neutralizing antibodies (NAbs) [1]	reduction of severity of the disease (EAE; Rebif® 300,000 IU once a day for 3 days from day of MBP injection)	efficacy of treatment initiated at a later stage (EAE; Ruuls et al.)	reduction of disease severity at the peak (EAE; prophylactic, from 2 days before MBP injection, 10 days (Van Der Meide et al.)) [score point]	disease course ([2]; separate study, 10,000 IU per day s.c.)	AUC of clinical score ([2]; separate study, daily from day 13, 18F 40 mg/kg p.o., COP-1 25 mg/kg s.c., IFN-β 10,000 IU per mouse s.c., control 24.14) [units]
IFN-1-1a: beta interferon product (probably IFN-β-1a) to which patients develop NAbs	two to twenty-eight					
IFN-β: interferon-beta; Rebif® in b238, Betaferon (Schering, Germany) in b259 (protein, UniProt P01574 22-187, looked up) Interferon beta: MSYNLLGFLQRSSNFQCQKLLWQLNGRLEYCLKDRMNFDIPEEIKQLQQFQKEDAALTIYEMLQNIFAIFRQDSSSTGWNETIVENLLANVYHQINHLKTVLEEKLEKEDFTRGKLMSSLHLKRYYGRILHYLKAKEYSHCAWTIVRVEILRNFYFINRLTGYLRN		about 30%	not effective	1	very similar to control group	23.08
